Measured values reported in patent publication US20240043860A1, “NOVEL HYDROXYPHENYLPYRUVATE DIOXYGENASE POLYPEPTIDES AND METHODS OF USE THEREOF” (Syngenta Crop Protection AG, priority 2020, published 2024).
Where “and” joins values, the source holds several entries; their conditions need not be identical. Equal values may be shown once.

What was measured:
Experiment in all cases: spray test, herbicidal damage scoring
Assay type in all cases: in vivo
[1] = tested on: transgenic tobacco plants expressing mutant HPPD SEQ ID NO: 124; settings: Table 4.2, 7 days after treatment, 100=complete death, 0=no damage, one value per event
[2] = tested on: transgenic tobacco plants expressing mutant HPPD SEQ ID 20; settings: Table 3.3, 14 days after treatment, 100=complete death, 0=no damage, one value per event
Protocol: (§1) Avena sativa HPPD or orthologues and variants thereof, for example SEQ IDs 1-63 and 122-127, were expressed in transgenic tobacco. DNA sequences that encode these polypeptides (optimized for tobacco or, optionally, codon optimized according to a target crop such as soybean) were prepared synthetically. Each sequence was designed to include a 5′ fusion with TMV omega 5′ leader sequence such that they are flanked at the 5′ end with XhoI and at the 3′ end with KpnI to facilitate direct cloning into a suitable binary vector for Agrobacterium-based plant transformation.
(§2) In one example, the TMV omega 5′ leader and a HPPD encoding gene of interest is excised using XhoI/KpnI and cloned into similarly digested binary vector pBIN 19 (Bevan, Nucl. Acids Res. (1984) behind a double enhanced 35S promoter ahead of a NOS 3′ transcription terminator and then transformed into E. coli DH5 alpha competent cells. DNA recovered from the E. coli is used to transform Agrobacterium tumefaciens LBA4404, and transformed bacteria are selected on media contain rifampicin and kanamycin. Tobacco tissue is subjected to Agrobacterium-mediated transformation using methods well described in the art or as described herein. For example, a master plate of Agrobacterium tumefaciens containing the HPPD expressing the binary vector is used to inoculate 10 ml LB (L broth) containing 100 mg/l Rifampicin plus 50 mg/l Kanamycin using a single bacterial colony. This is incubated overnight at 28° C. shaking at 200 rpm. This entire overnight culture is used to inoculate a 50 ml volume of LB containing the same antibiotics. Again this is cultured overnight at 28° C. shaking at 200 rpm. The Agrobacterium cells are pelleted by centrifuging at 3000 rpm for 15 minutes and then resuspended in MS (Murashige and Skoog) medium containing 30 g/l sucrose, pH 5.9 to an OD […]=0.6. This suspension is dispensed in 25 ml aliquots into petri dishes.
(§3) Once rooted, plantlets are transferred from agar and potted into 50% peat, 50% John Innes Soil No. 3 or, for example, MetroMix® 380 soil (Sun Gro Horticulture, Bellevue, WA) with slow-release fertilizer in 3 inch round or 4 inch square pots and left regularly watered to establish for 8-12d in the glass house. Glass house conditions are about 24-27° C. day; 18-21° C. night and approximately a 14h (or longer in UK summer) photoperiod. Humidity is adjusted to ˜65% and light levels used are up to 2000 umol/m^2 at bench level. […]
(§4) Plants are assessed for damage and scored at, for example, 7 and 14 days after treatment (DAT). […]
(§5) Plants of events showing the least damage are grown to flowering, then bagged and allowed to self. […] Single copy events amongst the Ti plant lines are identified by their 3:1 segregation ratio (with respect to kanamycin and/or herbicide) and by quantitative RT-PCR. […]

[3] = tested on: transgenic tobacco plants expressing mutant HPPD SEQ ID NO: 9; settings: Table 3.4, 14 days after treatment, SEQ ID 9, 100=complete death, 0=no damage, one value per event
Protocol: as §1, §2, §3, §4, §5

[4] = SEQ ID 125, Herbicide C 200 g/ha

For `COCCOCc1nc(C(F)(F)F)ccc1C(O)=C1C(=O)C2CCC(C2)C1=O`, the “herbicidal damage scoring, Bicyclopyrone 800 g/ha” value ([1]; 400 gai/ha) was 5, the “herbicidal damage scoring, Bicyclopyrone 800 g/ha” value ([2]; dose 200 g/ha) was 75 and 80 and 85 and the “herbicidal damage scoring, Bicyclopyrone 800 g/ha” value ([2]; dose 2000 g/ha) was 65 and 70 and 25.

With `COc1ccc(-n2nc(C)cc(C(=O)C3C(=O)CCCC3=O)c2=O)cc1OC` [Herbicide C, dioxopyritrione] the “herbicidal damage scoring, Herbicide C (100 g/ha)” value ([1]; SEQ ID 9, Herbicide C 100 g/ha) was 25, the “herbicidal damage scoring, Herbicide C (100 g/ha)” value ([1]; SEQ ID 9, Herbicide C 200 g/ha) was 35 and the “herbicidal damage scoring, Herbicide C (100 g/ha)” value ([1]; SEQ ID 125, Herbicide C 100 g/ha) was 65. The “herbicidal damage scoring, Herbicide C (100 g/ha)” value [1, 4] was 60, the “herbicidal damage scoring, Herbicide C (100 g/ha)” value ([3]; SEQ ID 125) was 70 and the “herbicidal damage scoring, Herbicide C (100 g/ha)” value [3, 4] was 80.
